# Test results as given in PubChem BioAssay AID588382 (National Center for Advancing Translational Sciences (NCATS), 2011).
# Only a part is listed here, and it is no random draw. Inconclusive results are not listed. Calls of active or inactive are those of the source. Calls follow the shape of the dose curve; as a rule, active = well fitted cell-killing curve with a large enough effect; inconclusive = small, poorly fitted or top-dose-only effect, or effect the other way; inactive = flat fitted curve, though single readings scatter.
# Test: qHTS of small molecules that selectively kill Giardia lamblia: Hit Validation in HepG2 cytotox;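 also: compound exposure lasted overnight at 37 deg C; nearly all actives have a fitted effect of over 55% in size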;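 as to activity change, negative = cytotoxicity: viability measured as cellular ATP by ATPLite luminescence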
# Conditions: cell viability; Potency: HepG2 cytotoxicity; series mostly up to 38.3 µM; activity change, negative = cytotoxicity: at the top concentration
# Excerpt: Giardia lamblia is a human pathogen afflicting impoverished nations, and the most common cause of outbreaks of diarrhea in the United States. Giardia has been classified by the CDC as a category B bioterrorism organism. The favored anti giardiasis drugs in the US are metronidazole or tinidazole, compounds that have undesirable side effects. Moreover, increasing resistance to drug regimes and recurrence are a concern. It is thus clear that alternative drug treatments are needed.
# In a collaboration between the University of Maryland, College Park and the NIH Chemical Genomics Center, a bioluminescence Giardia viability assay based on the trophozoites' ATP content was developed. This assay is suitable for high throughput screening, and miniaturized the assay for compound screening in 1536-well plates. The goal of the project is to screen the Molecular Libraries Small Molecule Repository (MLSMR) for compounds that selectively kill Giardia trophozoites. This counterscreen looks at the toxicity of the compounds against the human HepG2 cell line.
# NIH Chemical Genomics Center [NCGC]
# NIH Molecular Libraries Probe Centers Network [MLPCN]
# Assay Submitter (PI): Osnat Herzberg, University of Maryland, College Park, MD.
# 4 uL of HepG2 cells ae dispensed into white 1536-well plates. They are incubated overnight at 37 deg C and then 23 nL of compounds are transferred to the wells with a pintool. Plates are incubated overnight at 37 deg C. 2 uL of ATPLite is added and the plates are incubated for 15 min at room temperature before they are read on the ViewLux for luminiescence.
# % is scaled to controls: 0 for no effect and ±100 for the full control effect; potency is read from the fitted curve at half-maximal effect.
SMILES,"activity change, negative = cytotoxicity",Potency
O=C(Nc1ccncc1[N+](=O)[O-])c1ccc([N+](=O)[O-])cc1[N+](=O)[O-],inactive: 8.43%,–
COc1cc(I)ccc1[As](=O)(O)O,inactive: 10.7%,–
O=[As](O)(c1cccs1)c1cccs1,inactive: 13%,–
Nc1cccc([As](=O)(O)c2ccccc2)c1,inactive: -8.38%,–
Nc1ccc([As](=O)(O)c2ccc([N+](=O)[O-])cc2)cc1,inactive: 21.1%,–
O=c1c2cc([N+](=O)[O-])ccc2[nH]c2c([N+](=O)[O-])cc([N+](=O)[O-])cc12,–,active: 1.65 µM
O=[N+]([O-])c1cc([N+](=O)[O-])c2nc[nH]c2c1,inactive: 9.25%,–
NC(=O)c1cc([N+](=O)[O-])cc([N+](=O)[O-])c1N,inactive: 18.5%,–
